Literature values as cited in patent US20240199639A1, “PRETOMANID AMORPHOUS FORM” (THE GLOBAL ALLIANCE FOR TB DRUG DEVELOPMENT, INC., priority 2021, published 2024).

System: drug-resistant clinical isolates
Details: cited from earlier work

In the case of `O=[N+]([O-])c1cn2c(n1)OC[C@@H](OCc1ccc(OC(F)(F)F)cc1)C2` [PA-824, (6S)-2-nitro-6-{[4-(trifluoromethoxy)benzyl]oxy}-6,7-dihydro-5H-imidazo[2,1-b][1,3]oxazine], the “activity in vitro against drug-resistant clinical isolates” value is given as “activity in vitro against all tested drug-resistant clinical isolates”.
